The structures appear in SMILES notation.

Amino acid sequences for entries named in this document (tags omitted).
UniProt Q9UL17, whole entry: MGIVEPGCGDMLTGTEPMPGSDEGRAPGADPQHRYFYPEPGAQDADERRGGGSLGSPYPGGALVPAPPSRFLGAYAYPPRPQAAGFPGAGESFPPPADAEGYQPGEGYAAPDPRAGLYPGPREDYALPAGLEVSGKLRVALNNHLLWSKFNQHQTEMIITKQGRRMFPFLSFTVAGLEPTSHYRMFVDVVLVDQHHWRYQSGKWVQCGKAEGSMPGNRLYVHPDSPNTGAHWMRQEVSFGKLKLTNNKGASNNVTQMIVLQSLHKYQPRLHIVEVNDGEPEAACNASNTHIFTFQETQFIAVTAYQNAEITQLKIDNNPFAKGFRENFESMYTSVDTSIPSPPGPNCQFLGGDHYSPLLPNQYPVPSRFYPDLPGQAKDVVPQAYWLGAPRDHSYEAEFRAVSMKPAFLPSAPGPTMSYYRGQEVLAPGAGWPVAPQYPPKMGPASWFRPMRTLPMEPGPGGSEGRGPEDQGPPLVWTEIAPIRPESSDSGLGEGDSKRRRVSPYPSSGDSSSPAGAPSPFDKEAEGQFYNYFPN

26 compounds from US7666875B2, “Hydantoin compounds” (Eisai R&D Management Co., Ltd., priority 2005, dated 2010) can be followed below.

One test concerns the target human T-bet (Homo sapiens, UniProt Q9UL17). In words: HEKT-bet-luc assay (T-bet dependent luciferase reporter in engineered HEK cells). Conditions: Table 2, compound 24 hours, IC50 normalized to reference ER-213038. Here is the method:
HEKT-bet-luc assay: This assay measures a T-bet dependent reporter (luciferase) activity in engineered HEK cells that express a human T-bet and a T-box responsive element driving luciferase reporter. HEKT-bet cells were plated at 2×10^4/well in 96-well plate and compound was added into cell culture for 24 hours. Luciferase activity was measured by adding 50 μl of Steady-Glo reagent (Promega) and samples were read in Victor V reader (PerkinElmer). The IC50 values were calculated utilizing a maximum value corresponding to the amount of luciferase in the absence of a test compound and a minimum value corresponding to a test compound value obtained at maximum inhibition.
Determination of Normalized HEKT-bet IC50 values: Compounds were assayed in microtiter plates. Each plate included a reference compound which was ER-213038. The un-normalized IC50 value for a particular compound was divided by the IC50 value determined for the reference compound in the same microtiter plate to provide a relative potency value. The relative potency value was then multiplied by the established potency of the reference compound to provide the normalized HEKT-bet IC50 value. In this assay, the established potency for ER-213038 was 0.190 μM. The IC50 values provided herein were obtained using this normalization method.
(In general: Reporter assays use an easily measured gene product as a stand-in for the process of interest.)
In general, IC50 refers to the concentration that inhibits the measured activity by half. Low readings indicate inhibition by little substance, high ones a need for much substance. For `CCN1C(=O)N(Cc2ccc3c(c2)OCO3)C(=O)C12CCN(Cc1cc(OC)cc(OC)c1)CC2`, the IC50 is 232 nM.
As to `COCCN1C(=O)N(Cc2cccc(OC(F)(F)F)c2)C(=O)C12CCN(Cc1cc(OC)cc(OC)c1)CC2`, the IC50 was determined as 83 nM.
On the same count and under the same terms, next, `CN1C(=O)N(CCCc2ccncc2)C(=O)C12CCN(Cc1cc3ccccc3s1)CC2`: 1060 nM.
Still for that read-out and setting: next, `COCCN1C(=O)N(Cc2cccc(OC)c2)C(=O)C12CCN(Cc1cccc3c1oc1ccccc13)CC2`: 346 nM; `COCCN1C(=O)N(Cc2cc(OC)c(OC)c(OC)c2)C(=O)C12CCN(Cc1cc(OC)cc(OC)c1)CC2`: 128 nM.
The same measure, in the same setting: the result for `CCN1C(=O)N(Cc2cc(OC)cc(OC)c2)C(=O)C12CCN(Cc1cc(OC)cc(OC)c1)CC2` reads 112 nM.

The test is the same for the next values; noted with them: Table 2, compound 24 hours, IC50 normalized to reference ER-213038, tested form: TFA.
Turning to `COCCN1C(=O)N(C/C=C/c2ccccc2OC)C(=O)C12CCN(Cc1ccccc1)CC2`, the IC50 was 102 nM.
Regarding `CCN1C(=O)N(C/C=C/c2ccccc2)C(=O)C12CCN(Cc1cc(OC)cc(OC)c1)CC2`, the IC50 amounted to 59 nM.
For `CCCN1C(=O)N(C/C=C/c2cccc(OC)c2)C(=O)C12CCN(Cc1ccccc1)CC2`, the IC50 stood at 81 nM.
The same measure, in the same setting: next, `COCCN1C(=O)N(Cc2cccc(OC)c2)C(=O)C12CCN(Cc1ccnc3ccccc13)CC2`: 267 nM.
Compound `COc1cccc(CN2C(=O)N(CC=C(C)C)C3(CCN(Cc4cc(OC)cc(OC)c4)CC3)C2=O)c1` yielded an IC50 of 150 nM. This IC50 is about 1.8-fold lower than that of the compound before.
Compound `COc1cccc(CN2C(=O)N(CCn3cccc3)C3(CCN(Cc4cc(OC)cc(OC)c4)CC3)C2=O)c1` registered an IC50 of 264 nM.
Compound `COCCN1C(=O)N(C/C=C/c2ccccc2)C(=O)C12CCN(Cc1cccc(C)c1)CC2` returned an IC50 of 66 nM.
Consider `Cn1nnc2cc(CN3C(=O)N(C/C=C/c4ccccc4)C(=O)C34CCN(Cc3cccc5ccccc35)CC4)ccc21`, for which the IC50 was determined as 106 nM.
The compound `COCCN1C(=O)N(Cc2cccc(OC)c2)C(=O)C12CCN(Cc1ccc(OC)c3ccccc13)CC2` registered an IC50 of 58 nM.
In the case of `COCCN1C(=O)N(C/C=C/c2ccccc2)C(=O)C12CCN(Cc1ccc3ccccc3c1)CC2`, the IC50 came out at 163 nM.
The same measure, in the same setting: the result for `COCCN1C(=O)N(Cc2cccc(OC)c2)C(=O)C12CCN(Cc1nccc3ccccc13)CC2` reads 284 nM; that for `COCCN1C(=O)N(Cc2cccc(OC)c2)C(=O)C12CCN(C/C=C/c1ccccc1)CC2`, 1140 nM; that for `COCCN1C(=O)N(CCCCc2ccccc2)C(=O)C12CCN(Cc1ccccc1)CC2`, 603 nM.
For the compound `COc1cc(CN2CCC3(CC2)C(=O)N(C/C=C/c2ccccc2)C(=O)N3Cc2ccc3c(c2)nnn3C)cc(OC)c1`, the IC50 worked out at 78 nM.
The compound `COCCN1C(=O)N(Cc2cccc(OC)c2)C(=O)C12CCN(Cc1cn(C)c3ccccc13)CC2` showed an IC50 of 285 nM.
Turning to `COc1cccc(CN2C(=O)N(CCc3c[nH]c4ccccc34)C3(CCN(Cc4cc(OC)cc(OC)c4)CC3)C2=O)c1`, the IC50 stood at 389 nM.
The compound `COc1cc(CN2CCC3(CC2)C(=O)N(/C=C/Cc2ccccc2)C(=O)N3CCO)cc(OC)c1` gave an IC50 of 244 nM. Against the preceding compound, the IC50 is about 1.6-fold lower.
`CCN1C(=O)N(C/C=C/c2ccccc2)C(=O)C12CCN(Cc1cccc(OC)c1)CC2`: the IC50 stood at 59 nM.
Still for that read-out and setting: next, `CCN1C(=O)N(C/C=C/c2ccccc2)C(=O)C12CCN(Cc1ccc3ccccc3c1)CC2`: 151 nM; `CCN1C(=O)N(C/C=C/c2ccccc2)C(=O)C12CCN(Cc1cccc3ccccc13)CC2`: 110 nM.
